Yeast mating assay 1: variants of the scFv Ab-14

From the AlphaSeq antibody data of Engelhart et al. 2022 (doi:10.1038/s41597-022-01779-4), copy in the FLAb collection.

Target peptide (SARS-CoV-2 spike, HR2 region): PDVDLGDISGINAS

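The starting antibody came from a phage panning campaign against this peptide. Variants in AAYL50 differ from the parent at up to three CDR positions; double and triple changes were sampled at random. The assay is AlphaSeq: two haploid yeast populations carry antibody and antigen on their surface. After mating in shaken culture at 30 °C for 16 h, diploids were selected and their barcode pairs sequenced. The ratio of observed to expected reads was calibrated, replicate by replicate, on BCL2-family standards whose Kd was known from biolayer interferometry. There are three technical replicates.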

Parent: Ab-14, a human scFv built as VH, a 15-residue (Gly4Ser)3 linker, VL. Only the CDRs of the light chain vary.
VH: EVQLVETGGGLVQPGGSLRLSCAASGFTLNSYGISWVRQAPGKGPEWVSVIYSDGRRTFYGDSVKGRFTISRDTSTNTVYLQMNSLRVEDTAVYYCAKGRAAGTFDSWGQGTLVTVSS
VL: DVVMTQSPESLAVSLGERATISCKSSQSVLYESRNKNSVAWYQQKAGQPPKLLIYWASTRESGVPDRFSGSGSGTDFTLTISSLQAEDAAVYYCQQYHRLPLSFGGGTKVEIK

Variants are written as CDR1, CDR2 and CDR3 of the light chain (limits as in the source). Parent: KSSQSVLYESRNKNSVA, WASTRES, QQYHRLPLS. All variants listed here change N37 of the VL, counted from its first residue. The Kd shown is the geometric mean over detected replicates; a lower Kd is a better binder. A pair that was not seen in any replicate is written "no signal"; this usually means weak binding, but a binder can also be missed. In this assay the parent's reference entry averaged 4.4 nM; its copy inside this library read 48 nM. As a blank, each scFv also met three strains without target: over library AAYL50, 18% of these pairings were detected, typically at 15 µM and seldom below 970 nM. Also given: how often the same scFv was detected with the empty control strains.

With KSSQSVLYESRNKRSVA / LASLRES / QQYHRLPLS the result was 40 nM (3 of 3 replicates; controls 2 of 9). With KSSQSVKYESRNKSSVA / WASTREM / QQYHRLPLS the result was 130 nM (3 of 3 replicates; controls 4 of 9). Variant KSSHSVLYESRNKWSVA / WARTRES / QQYHRLPLS showed 600 nM (3 of 3 replicates; controls 3 of 9). For KSSQAVLYESRNKHSNA / WASTRES / QQYHRLPLS, the assay gave no signal (0 of 3 replicates; controls 0 of 9). For KSSQSVLYESRNKHSVA / WASTRES / QQYHILELS, the assay gave 4.7 µM (1 of 3 replicates; controls 5 of 9). For WSSQSVLYESRNKWSVA / WASTRES / QQYHRLPLQ, the assay gave 5.7 nM (3 of 3 replicates; controls 1 of 9). With KSSQSVLYESRNKHSVA / WASTRES / QQYTLLPLS the result was 67 nM (3 of 3 replicates; controls 2 of 9). For KSSQSVLYESRNKQSVA / WAYTREY / QQYHRLPLS, the assay gave 130 nM (3 of 3 replicates; controls 0 of 9). Variant KSSCSVLYESRNKSSVA / WASTFES / QQYHRLPLS gave 8.7 µM (1 of 3 replicates; controls 1 of 9).

With KSAQSVLYESRNKSSVA / WRSTRES / QQYHRLPLS the result was no signal (0 of 3 replicates; controls 1 of 9). Variant KSSQSVLYESRNKYSVA / WRSTRES / QQYHRLPLS showed 91 nM (3 of 3 replicates; controls 1 of 9). Variant KSSQSVLYESRNKVSVW / WASTRES / QQYWRLPLS gave no signal (0 of 3 replicates; controls 2 of 9). Variant KSSCSVLYESRNKFSVA / WASTRES / QQYHRHPLS gave no signal (0 of 3 replicates; controls 0 of 9). Variant KSSQSVLYEFRNHISVA / WASTRES / QQYHRLPLS showed no signal (0 of 3 replicates; controls 1 of 9). For KSSQSVLYESRNKISVA / WASTRYS / QQYHRLPLS, the assay gave 470 nM (3 of 3 replicates; controls 0 of 9). For KSSQSVLYESRNKCSVA / WASTQES / QQYHRLLLS, the assay gave no signal (0 of 3 replicates; controls 0 of 9). Variant KSSQSVLYESTNKPSVA / WASTREI / QQYHRLPLS showed no signal (0 of 3 replicates; controls 0 of 9). Variant KSSQSVLYESPNKPSVA / WASTRES / QQYHRLPLS showed no signal (0 of 3 replicates; controls 0 of 9).

Variant KSSQSVLYESRNKRSVA / WASGRES / QQYHRLPES gave 5.3 µM (1 of 3 replicates; controls 1 of 9). Variant KSSMSVLYESRNKLSVA / WASTRES / QQYHRLWLS gave 15 µM (1 of 3 replicates; controls 2 of 9). Variant KSSQSVLYESRNKFQVA / WASTRES / QQYHRLPLK gave no signal (0 of 3 replicates; controls 2 of 9). For KSSQSVLYRSRNKCSVA / WASTRES / QQYHRLTLS, the assay gave no signal (0 of 3 replicates; controls 0 of 9). For KSSQSVLYESRNKTSVA / WATTRES / QQTHRLPLS, the assay gave 16 µM (1 of 3 replicates; controls 0 of 9). Variant KSSQSVLYESRNMHSVA / WASTRES / QQYHRLPLS gave 6.6 nM (3 of 3 replicates; controls 4 of 9). For KSSQSVLNESRNKKSVA / WASLRES / QQYHRLPLS, the assay gave 35 nM (3 of 3 replicates; controls 3 of 9). Variant KSSQSVLYESRYKASVA / WADTRES / QQYHRLPLS gave 150 nM (3 of 3 replicates; controls 1 of 9). Variant KSSQSVLYESRNKSSVA / WAETRES / QQYHRLHLS showed no signal (0 of 3 replicates; controls 2 of 9).

Variant KTSQSVLYESRNKYSVA / WASTRES / QQYHRLPLS gave 5.0 nM (3 of 3 replicates; controls 3 of 9). With KSSQSVLYEVRNKCSVA / WASTRES / QQYHSLPLS the result was 22 nM (3 of 3 replicates; controls 1 of 9). Variant KSSKSVLYESRNKYSVA / WASTREW / QQYHRLPLS showed 18 nM (3 of 3 replicates; controls 2 of 9). For KSSSSSLYESRNKTSVA / WASTRES / QQYHRLPLS, the assay gave 87 nM (3 of 3 replicates; controls 1 of 9). Variant KSSQSVLYESRNKTSVA / WASTRES / QQYVRLPLS gave 3.8 µM (1 of 3 replicates; controls 2 of 9).

For reference, 2 entries of the list once more:

| CDR-L1 | CDR-L2 | CDR-L3 | Kd (apparent) | replicates with signal | empty controls |
|---|---|---|---|---|---|
| KSSQSVLYESRNKRSVA | WASGRES | QQYHRLPES | 5.3 µM | 1/3 | 1/9 |
| KSSQSVLYESRNKRSVA | LASLRES | QQYHRLPLS | 40 nM | 3/3 | 2/9 |